Screens deposited in PubChem by Broad Institute.
Shown are actives, neighbours in structure and some others; about 0.73% of the full set was active somewhere.
RAD52 inh – RAD52 (human) annealing inhibition | P43351 | recombinant RAD52 DNA annealing, FRET fluorescence | inhibition, % at 18.7 µM | actives 0.46% (n = 360,000);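 active = every replicate showing at least 50% inhibition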
E-selectin induc – induces E-selectin expression in human endothelial cells; P16581; HUVEC E-selectin immunofluorescence imaging; normalized: neutral wells 0, TNF-alpha wells 100; activation, % at 7.58 µM; actives 0.37% (n = 260,000);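 active = mean E-selectin-positive cell signal at least 10% of the positive control, reached in at least 60% of replicates, without over 20% cell loss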
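Test system: HUVEC; input: 3,000 HUVEC/well; measured by: immunofluorescence imaging; read-out: % PE-positive cells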
Xi reactivation – activators of X-chromosome reactivation in mouse fibroblasts; XiGFP mouse fibroblasts, % GFP-positive cells imaging, 3 d; cells co-treated with 5-aza-dC sensitizer; scaled so ellipticine positive control = 100%; actives 0.055% (n = 360,000); activation, % at 7.58 µM;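 active = mean normalized replicate activation at least 10% and every replicate at or above 10%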
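System: SV40-immortalized XiGFP fibroblast cells, line 68-5-11 / Incubation: 3-day compound exposure, then 15 min fixation at room temperature / Compound: single concentration per compound, delivered by pin transfer / Buffer or medium: DMEM plus 5-aza-dC sensitizer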
UUG fidelity – modulators of yeast start codon fidelity, primary screen, whole organism, S. cerevisiae, single point, plate reader; S. cerevisiae UUG-firefly luciferase reporter, luminescence/redox ratio; activity score, % at 18.7 µM; actives 0.13% (n = 350,000); AID 602363, 2012;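 active = replicate mean at a twofold rise or more, about +100% in these data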;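 also: firefly luciferase made from a UUG start codon reports start codon fidelity; reporter light over untreated wells divided by growth signal over untreated wells; some hits fall short of that in this replicate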
RAD54 branch – inhibitors of human RAD54 branch migration; actives 0.14% (n = 360,000); Q92698; RAD54 Holliday junction branch migration, FAM/BHQ fluorescence; inhibition, % at 10.4 µM;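 active = mean normalized replicate activity at least 40 and at least half of replicates scoring 40 or more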;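 note: inhibitors cause a drop in the FAM fluorescence signal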
A number is an active result; – = inactive; · = no result.

SMILES	RAD52 inh	E-selectin induc	Xi reactivation	UUG fidelity	RAD54 branch
C[C@@H]1CN([C@@H](C)CO)C(=O)Cc2cc(NC(=O)Nc3ccccc3)ccc2O[C@H]1CN(C)Cc1ccc(C(=O)O)cc1	–	–	–	–	–
C[C@@H]1CN([C@@H](C)CO)C(=O)Cc2cc(NC(=O)Nc3ccc(F)cc3)ccc2O[C@@H]1CN(C)Cc1ccc(C(=O)O)cc1	–	80	–	–	–
COc1ccc(CN(C)C[C@@H]2Oc3ccc(NC(=O)Nc4ccc(F)cc4)cc3CC(=O)N([C@@H](C)CO)C[C@@H]2C)cc1	–	62	–	–	–
NC(=NC(=O)c1cccc(C(F)(F)F)c1)c1ccc(C(F)(F)F)cn1	–	·	22	–	–
CCOC(=O)c1cnc2c(Cl)cc(Cl)cc2c1NCCCN1CCOCC1	–	·	–	–	–
CCOC(=O)c1cnc2c(C)cc(Cl)cc2c1NCCCN1CCOCC1	–	·	–	–	57
CC(C)NC(=O)N(C)C[C@H]1OCc2cnnn2CCCC(=O)N([C@@H](C)CO)C[C@@H]1C	–	–	–	–	–
O=C(O)c1cc(Cl)ccc1-c1ccc(/C=C/c2cc(C(F)(F)F)[nH]c(=O)n2)o1	–	·	–	·	·
O=C(O)c1ccccc1-c1ccc(/C=C/c2cc(C(F)(F)F)[nH]c(=O)n2)o1	–	28	–	·	·
CCC(CN(C)C)Oc1cc(NCc2ccccc2)c2ncn(C(C)C)c2c1 (stereo unspecified)	·	·	·	–	70
Cc1ccc(S(=O)(=O)Nc2ccc3c(c2)CC(=O)N([C@@H](C)CO)C[C@H](C)[C@H](CN(C)Cc2ccc(-c4ccccc4)cc2)O3)cc1	–	–	–	–	–
Cc1noc(C)c1S(=O)(=O)Nc1ccc2c(c1)CC(=O)N([C@H](C)CO)C[C@H](C)[C@@H](CN(C)Cc1ccc(-c3ccccc3)cc1)O2	–	58	–	·	·
Cc1noc(C)c1S(=O)(=O)Nc1ccc2c(c1)CC(=O)N([C@@H](C)CO)C[C@@H](C)[C@H](CN(C)Cc1ccc(-c3ccccc3)cc1)O2	–	–	–	·	·
Cc1ccc(S(=O)(=O)Nc2ccc3c(c2)CC(=O)N([C@H](C)CO)C[C@H](C)[C@@H](CN(C)Cc2ccc(-c4ccccc4)cc2)O3)cc1	67	–	–	–	–
COc1ccc(NC(=O)Nc2ccc3c(c2)CC(=O)N([C@H](C)CO)C[C@H](C)[C@@H](CN(C)CC2CCCCC2)O3)cc1	–	–	–	–	–
COc1ccc(CN(C)C[C@@H]2Oc3ccc(NC(=O)c4ccncc4)cc3C(=O)N([C@@H](C)CO)C[C@H]2C)cc1	–	56	–	–	–
COc1ccc(CN(C)C[C@@H]2Oc3ccc(NC(=O)Nc4ccccc4)cc3C(=O)N([C@H](C)CO)C[C@H]2C)cc1	–	–	–	–	57
COc1ccc(CN(C)C[C@H]2Oc3ccc(NC(=O)c4ccncc4)cc3C(=O)N([C@@H](C)CO)C[C@@H]2C)cc1	–	–	–	–	–
C[C@@H]1CN([C@@H](C)CO)C(=O)c2cc(NC(=O)Cc3ccccc3)ccc2O[C@@H]1CN(C)Cc1ccc(Cl)c(Cl)c1	–	35	–	–	–
COc1ccc(NC(=O)Nc2ccc3c(c2)C(=O)N([C@H](C)CO)C[C@H](C)[C@@H](CN(C)Cc2ccncc2)O3)cc1	–	170	–	–	–
COc1ccc(NC(=O)Nc2ccc3c(c2)C(=O)N([C@H](C)CO)C[C@@H](C)[C@@H](CN(C)Cc2ccncc2)O3)cc1	–	–	–	–	–
COc1ccc(NC(=O)Nc2ccc3c(c2)C(=O)N([C@@H](C)CO)C[C@H](C)[C@@H](CN(C)C)O3)cc1	–	41	–	–	–
C[C@H](CO)N1C[C@H](C)[C@H](CN(C)Cc2ccc(C(=O)O)cc2)Oc2ccc(N(C)C)cc2C1=O	·	–	–	·	·
COc1ccc(NC(=O)Nc2ccc3c(c2)C(=O)N([C@@H](C)CO)C[C@H](C)[C@H](CN(C)C)O3)cc1	–	–	–	–	–
COc1ccc(CN(C)C[C@H]2Oc3ccc(NC(=O)Nc4c(C)noc4C)cc3C(=O)N([C@@H](C)CO)C[C@H]2C)cc1	–	239	–	–	–
C[C@@H]1CN([C@H](C)CO)C(=O)c2cc(N(C)C)ccc2O[C@H]1CN(C)Cc1ccc(C(=O)O)cc1	–	267	–	–	–
